According to US20220153847A1 (Chugai, published 2022):

How the values were obtained:
[1] = target: T1, HLA-DQ2.5/avenin 3 peptide complex on Ba/F3 cells (human); assay: FACS, Ba/F3 cells; IC17=0%, DQN0139bb=100%;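 note: flow cytometric binding of anti-HLA-DQ antibodies, each applied at 5 µg/mL for 30 min at room temperature, to Ba/F3 cell lines displaying HLA-DQ–peptide complexes; antibody tested at 5 microgram/mL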
T1 construct: whole, on cells; also called Ba/F3-HLA-DQ2.5/avenin 3

[2] = target: T2, HLA-DQ2.5/secalin 1 peptide complex on Ba/F3 cells (human); assay: FACS, Ba/F3 cells; IC17=0%, DQN0139bb=100%;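 note: flow cytometric binding of anti-HLA-DQ antibodies, each applied at 5 µg/mL for 30 min at room temperature, to Ba/F3 cell lines displaying HLA-DQ–peptide complexes; antibody tested at 5 microgram/mL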
T2 construct: whole, on cells; also called Ba/F3-HLA-DQ2.5/secalin 1

[3] = target: T3, HLA-DQ2.5/alpha 1 gliadin peptide complex on Ba/F3 cells (human); assay: FACS, Ba/F3 cells; IC17=0%, DQN0139bb=100%;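 note: flow cytometric binding of anti-HLA-DQ antibodies, each applied at 5 µg/mL for 30 min at room temperature, to Ba/F3 cell lines displaying HLA-DQ–peptide complexes; antibody tested at 5 microgram/mL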
T3 construct: whole, on cells; also called Ba/F3-HLA-DQ2.5/alpha 1 gliadin; HLA-DQ2.5/a1 gliadin

[4] = target: T4, HLA-DQ2.5/33mer gliadin peptide complex on Ba/F3 cells (human); assay: FACS, Ba/F3 cells; IC17=0%, DQN0139bb//IC17=100%;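 note: flow cytometry binding of anti-HLA-DQ antibodies at 5 µg/mL, incubated 30 min at room temperature with Ba/F3 lines presenting HLA-DQ/peptide complexes; antibody tested at 5 microgram/mL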
T4 construct: whole, on cells; also called Ba/F3-HLA-DQ2.5/33mer gliadin

[5] = target: T5, HLA-DQ2.5 on HLA-DQ2.5-positive PBMC B cells (human, UniProt P01909 24-254; P01920 33-261); assay: FACS, PBMC B cells; IC17=0%, DQN0139bb=100%
T5 construct: whole, on cells; also called HLA-DQ2.5+ PBMC B cell

HLA-DQ2.2 on Ba/F3 cells = target: T6, HLA-DQ2.2 on Ba/F3 cells (human, UniProt P01909 24-216, limits assumed); assay: FACS, Ba/F3 cells; IC17=0%, DQN0139bb=100%;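 note: flow cytometric binding of anti-HLA-DQ antibodies, each applied at 5 µg/mL for 30 min at room temperature, to Ba/F3 cell lines displaying HLA-DQ–peptide complexes; antibody tested at 5 microgram/mL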
T6 construct: whole, on cells; also called Ba/F3-HLA-DQ2.2

B1: DQN0385ee (antibody, V domains shown)
VH: QEQLEESGGDLVKPGASLTLTCTASGFSFYSSYWICWVRQAPGKGLEWIACIDTGSGSIDYASWVNGRFTISKTSSTTVTLQMTSLTVADTATYFCARDIGIDYNFWGPGTLVTVSS
VL: AFELTQTPSFVEAAVGGTVTIKCQATQSISSYLNWYQQKPGQPPKLLIYYASTLASGVPSRFKGSGSGTEFSLTISGVECADAATYYCHYGISYVSFGGGTKVEIK
notes: also called DQN0385xx
% MFI [1]: 1.1% | % MFI [2]: 13.7%

B2: DQN0429cc (antibody, V domains shown)
VH: QEQLVESGGGLVQPEGSLTLTCTASGFSFSSSYYMCWVRQAPGKGLEWIGCIYTGSGSTDYATWVNGRFTISKTSSTTVTLQMTSLTVADTATYFCARDIGIDYNFWGPGTLVTVSS
VL: AFELTQTPSFVEARVGGTVTIKCQATQSISSYLNWYQQKPGQPPKLLIYYASTLASGVPSRFKGSGSGTEFTLTISGVECADAATYYCHYGISYVSFGGGTKVEIK
notes: also called DQN0492cc
% MFI [3]: 5.4%

B3: DQN0385ee//IC17 (bispecific antibody, human IgG1, kappa)
heavy 1: QEQLEESGGDLVKPGASLTLTCTASGFSFYSSYWICWVRQAPGKGLEWIACIDTGSGSIDYASWVNGRFTISKTSSTTVTLQMTSLTVADTATYFCARDIGIDYNFWGPGTLVTVSSASTKGPSVFPLAPSSKSTSGGTAALGCLVKDYFPEPVTVSWNSGALTSGVHTFPAVLQSSGLYSLSSVVTVPSSSLGTQTYICNVNHKPSNTKVDKRVEPKSCDKTHTCPPCPAPELRRGPSVFLFPPKPKDTLMISRTPEVTCVVVDVSHEDPEVKFNWYVDGVEVHNAKTKPREEQYNSTYRVVSVLTVLHQDWLNGKEYKCKVSNKALPAPIEKTISKAKGQPREPQVYTLPPSREEMTKNQVSLTCLVKGFYPSDIAVEWESNGQPENNYKTTPPYLDSDGSFFLYSKLTVDKSRWQQGNVFSCSVMHEALHNHYTQESLSLSP
light 1: AFELTQTPSFVEAAVGGTVTIKCQATQSISSYLNWYQQKPGQPPKLLIYYASTLASGVPSRFKGSGSGTEFSLTISGVECADAATYYCHYGISYVSFGGGTKVEIKRTVAAPSVFIFPPSDEQLKSGTASVVCLLNNFYPREAKVQWKVDNALQSGNSQESVTEQDSKDCTYSLSSTLTLSKADYEKHKVYACEVTHQGLSSPVTKSFNRGEC
heavy 2: QVQLQQSGPQLVRPGASVKISCKASGYSFTSYWMHWVNQRPGQGLEWIGMIDPSYSETRLNQKFKDKATLTVDKSSSTAYMQLSSPTSEDSAVYYCALYGNYFDYWGQGTTLTVSSASTKGPSVFPLAPSSKSTSGGTAALGCLVKDYFPEPVTVSWNSGALTSGVHTFPAVLQSSGLYSLSSVVTVPSSSLGTQTYICNVNHKPSNTKVDKRVEPKSCDKTHTCPPCPAPELRRGPSVFLFPPKPKDTLMISRTPEVTCVVVDVSHEDPEVKFNWYVDGVEVHNAKTKPREEQYNSTYRVVSVLTVLHQDWLNGKEYKCKVSNKALPAPIEKTISKAKGQPREPQVYTLPPSRKEMTKNQVSLTCLVKGFYPSDIAVEWESNGQPENNYKTTPPYLDSDGSFFLYSKLTVDKSRWQQGNVFSCSVMHEALHNHYTQKSLSLSP
light 2: DIQMTQSSSSFSVSLGDRVTITCKASEDIYNRLAWYQQKPGNAPRLLISGATSLETGVPSRFSGSGSGKDYTLSITSLQTEDVATYYCQQYWSTPYTFGGGTKLEVKRTVAAPSVFIFPPSDEQLKSGTASVVCLLNNFYPREAKVQWKVDNALQSGNSQESVTEQDSKDSTYSLSSTLTLSKADYEKHKVYACEVTHQGLSSPVTKSFNRGEC
% MFI [4]: 73.9%

B4: DQN0344xx//DQN0429cc (bispecific antibody, human IgG1, kappa)
heavy 1: QSLEESGGGLVKPGGTLTLTCTASGFSFSSSYWMCWVRQAPGKGLEWVACVYGGSDTTYYASWTKGRFTISKGSSTTVALQVTSLTAADTATYFCARDPLNYYYYGELNLWGPGTLVTVSSASTKGPSVFPLAPSSKSTSGGTAALGCLVKDYFPEPVTVSWNSGALTSGVHTFPAVLQSSGLYSLSSVVTVPSSSLGTQTYICNVNHKPSNTKVDKRVEPKSCDKTHTCPPCPAPELRRGPSVFLFPPKPKDTLMISRTPEVTCVVVDVSHEDPEVKFNWYVDGVEVHNAKTKPREEQYNSTYRVVSVLTVLHQDWLNGKEYKCKVSNKALPAPIEKTISKAKGQPREPQVYTLPPSREEMTKNQVSLTCLVKGFYPSDIAVEWESNGQPENNYKTTPPYLDSDGSFFLYSKLTVDKSRWQQGNVFSCSVMHEALHNHYTQESLSLSP
light 1: AVVLTQTASPVSAAVGGTVTIRCQATENIYSGLAWYQQKPGQPPKVLIYYVSTLASGVPSRFKGSGSGTEYTLTISGVQCDDAATYYCQTYHDISNVTFGGGTKVEIKRTVAAPSVFIFPPSDEQLKSGTASVVCLLNNFYPREAKVQWKVDNALQSGNSQESVTEQDSKDCTYSLSSTLTLSKADYEKHKVYACEVTHQGLSSPVTKSFNRGEC
heavy 2: QEQLVESGGGLVQPEGSLTLTCTASGFSFSSSYYMCWVRQAPGKGLEWIGCIYTGSGSTDYATWVNGRFTISKTSSTTVTLQMTSLTVADTATYFCARDIGIDYNFWGPGTLVTVSSASTKGPSVFPLAPSSKSTSGGTAALGCLVKDYFPEPVTVSWNSGALTSGVHTFPAVLQSSGLYSLSSVVTVPSSSLGTQTYICNVNHKPSNTKVDKRVEPKSCDKTHTCPPCPAPELRRGPSVFLFPPKPKDTLMISRTPEVTCVVVDVSHEDPEVKFNWYVDGVEVHNAKTKPREEQYNSTYRVVSVLTVLHQDWLNGKEYKCKVSNKALPAPIEKTISKAKGQPREPQVYTLPPSRKEMTKNQVSLTCLVKGFYPSDIAVEWESNGQPENNYKTTPPYLDSDGSFFLYSKLTVDKSRWQQGNVFSCSVMHEALHNHYTQKSLSLSP
light 2: AFELTQTPSFVEARVGGTVTIKCQATQSISSYLNWYQQKPGQPPKLLIYYASTLASGVPSRFKGSGSGTEFTLTISGVECADAATYYCHYGISYVSFGGGTKVEIKRTVAAPSVFIFPPSDEQLKSGTASVVCLLNNFYPREAKVQWKVDNALQSGNSQESVTEQDSKDCTYSLSSTLTLSKADYEKHKVYACEVTHQGLSSPVTKSFNRGEC
% MFI [4]: 91.6%

B5: DQN0344xx (antibody, V domains shown)
VH: QSLEESGGGLVKPGGTLTLTCTASGFSFSSSYWMCWVRQAPGKGLEWVACVYGGSDTTYYASWTKGRFTISKGSSTTVALQVTSLTAADTATYFCARDPLNYYYYGELNLWGPGTLVTVSS
VL: AVVLTQTASPVSAAVGGTVTIRCQATENIYSGLAWYQQKPGQPPKVLIYYVSTLASGVPSRFKGSGSGTEYTLTISGVQCDDAATYYCQTYHDISNVTFGGGTKVEIK
% MFI [5]: -0.1% | % MFI (HLA-DQ2.2 on Ba/F3 cells): -0.1%
